Measurements: ChEMBL document CHEMBL1125320, “Imidazole-5-acrylic acids: potent nonpeptide angiotensin II receptor antagonists designed using a novel peptide pharmacophore model” (J Med Chem, 1992)
pIC50: −log10 of the molar value.

The chains behind the UniProt entries cited, without tags or fusion partners.
UniProt P29089, whole entry: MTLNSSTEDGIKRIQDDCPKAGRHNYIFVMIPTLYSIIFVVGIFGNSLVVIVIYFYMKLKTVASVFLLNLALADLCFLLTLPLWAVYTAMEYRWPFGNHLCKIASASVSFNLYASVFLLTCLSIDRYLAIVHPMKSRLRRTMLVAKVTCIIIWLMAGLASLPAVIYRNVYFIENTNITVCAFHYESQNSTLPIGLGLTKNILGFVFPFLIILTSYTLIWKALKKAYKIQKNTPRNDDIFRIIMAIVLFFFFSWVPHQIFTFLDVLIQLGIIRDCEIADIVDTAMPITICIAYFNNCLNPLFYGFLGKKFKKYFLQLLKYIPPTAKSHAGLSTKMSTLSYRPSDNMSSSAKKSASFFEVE

Biological target: Type-1 angiotensin II receptor B (Rattus norvegicus, UniProt P29089)
Experiment: Inhibition of [125I]angiotensin II receptor specific binding to rat mesenteric arteries

pIC50: 4.37
Structure (SMILES): CCCCc1nc(Cl)c(CC(=O)O)n1Cc1ccccc1Cl
